{"source": "patent US20180256673A1", "about": "“METHODS FOR TREATING FUNGAL INFECTIONS” (priority 2015, published 2018)", "test_system": "C. albicans ATCC 90028 (FKS WT) and DPL22 (fks/FKS mutant S645P/S)", "experiment": "Invasive candidiasis model in neutropenic BALB/c mice, kidney burden", "settings": "P<0.05", "note": "Starred links: 1 amine or outer side, 2 acyl side, 3 side chain; linkers in the order of their positions; H or OH if unused. Positions of bridges follow the written chain, without caps; N, C: chain ends. Non-standard residues stand in square brackets, D forms with d. Residues, ends and D or L forms follow the SMILES beside them. *: point of attachment. Orn(4R-OH,5R-OCH2CH2NMe3+) = C[N+](C)(C)CCO[C@@H](N[*:3])[C@H](O)C[C@H](N[*:1])C(=O)[*:2]; pTerphenylCO(4''-OnC5H11) = CCCCCOc1ccc(-c2ccc(-c3ccc(C(=O)*)cc3)cc2)cc1; hTyr(3S-OH,4S-OH) = N[C@H](C(=O)O)[C@H](O)[C@@H](O)c1ccc(O)cc1; Pro(3S-OH,4S-Me) = C[C@H]1CN[C@H](C(=O)O)[C@H]1O; Hyp = O=C(O)[C@@H]1C[C@@H](O)CN1"}
{"smiles": "CCCCCOc1ccc(-c2ccc(-c3ccc(C(=O)N[C@H]4C[C@@H](O)[C@@H](OCC[N+](C)(C)C)NC(=O)[C@@H]5[C@@H](O)[C@@H](C)CN5C(=O)[C@H]([C@@H](C)O)NC(=O)[C@H]([C@H](O)[C@@H](O)c5ccc(O)cc5)NC(=O)[C@@H]5C[C@@H](O)CN5C(=O)[C@H]([C@@H](C)O)NC4=O)cc3)cc2)cc1", "note": "[Compound 1] ({pTerphenylCO(4''-OnC5H11)}-[Orn(4R-OH,5R-OCH2CH2NMe3+)]T[Hyp][hTyr(3S-OH,4S-OH)]T[Pro(3S-OH,4S-Me)]; lactam 1-C)", "values": [{"measurement": "reduction of kidney burdens compared to vehicle control", "setting": "DPL22 infected mice, 24 h post-inoculation", "value": "over 2 logs"}, {"measurement": "kidney burden versus vehicle", "setting": "wild-type and fks/FKS mutant strains, 20, 40, 60 mg/kg single IP dose, 24 h and 48 h post-inoculation", "value": "significant kidney burden reduction"}]}
